## Antibody variant affinities, Ab-14 heavy chain, assay 1

Reference: Engelhart et al. 2022, doi:10.1038/s41597-022-01779-4. File: FLAb, binding data.

Target peptide (SARS-CoV-2 spike, HR2 region): PDVDLGDISGINAS

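The parent was found by panning a naive human phage display library on the peptide. The library (AAYL49) carries one to three amino acid substitutions per variant, with no insertions or deletions. In AlphaSeq, yeast of one mating type display the scFv and yeast of the other type display the target. The frequency of each diploid, read from paired DNA barcodes, reflects how well the two displayed proteins bind. Read counts were normalised to the haploid input and turned into Kd by a linear fit to BCL2-family pairs of known affinity, for each replicate. There are three technical replicates.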

Parent scFv Ab-14: VH joined to VL by three GGGGS repeats. Changes lie in the heavy chain CDRs alone.
VH: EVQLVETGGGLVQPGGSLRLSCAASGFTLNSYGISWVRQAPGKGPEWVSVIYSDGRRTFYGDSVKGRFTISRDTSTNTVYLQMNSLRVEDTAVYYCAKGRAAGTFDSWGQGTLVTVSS
VL: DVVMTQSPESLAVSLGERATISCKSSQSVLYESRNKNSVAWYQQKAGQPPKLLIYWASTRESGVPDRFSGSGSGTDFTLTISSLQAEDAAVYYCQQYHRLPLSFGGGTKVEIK

Each variant's VH is given in full. Scale: log10 of Kd in nM, estimated from mating counts; low values are strong binders. "ND" means that the variant was in the library but no mating with the target was seen in that replicate; the authors take this as a sign of poor binding, and no number exists. Nonspecific signal, from three strains lacking the peptide, appeared in 15% of pairings of library AAYL49, centred on 4.06 (5% of these signals below 2.83); values are not corrected for it. The control count says in how many pairings with the empty strains this scFv gave a signal, with their mean in brackets.

| VH | log10 Kd, replicates | control signals |
|---|---|---|
| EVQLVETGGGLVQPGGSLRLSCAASGFTLLSYGISWVRQAPGKGPEWVSVIDSDGRKTFYGDSVKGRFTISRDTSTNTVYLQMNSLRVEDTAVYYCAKGRAAGTFDSWGQGTLVTVSS | ND / ND / ND | 0 of 9 |
| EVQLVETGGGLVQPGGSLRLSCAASGFTLNSYGISWVRQAPGKGPEWVSVIYSDGRRTFYPDSVKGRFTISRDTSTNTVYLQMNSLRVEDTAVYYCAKGGAAGQFDSWGQGTLVTVSS | ND / ND / ND | 0 of 9 |
| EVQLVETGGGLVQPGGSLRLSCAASGFTLNSYGISWVRQAPGKGPEWVSVIYGDGRRTFYGDLVKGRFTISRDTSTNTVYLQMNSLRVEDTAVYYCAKGRAADTFDSWGQGTLVTVSS | ND / ND / ND | 0 of 9 |
| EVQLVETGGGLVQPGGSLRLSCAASGFTLNSYGISWVRQAPGKGPEWVSVIYSDGRRTFYGVIHKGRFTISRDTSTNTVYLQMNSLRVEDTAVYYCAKGRAAGTFDSWGQGTLVTVSS | ND / 4.45 / ND | 1 of 9 (3.68) |
| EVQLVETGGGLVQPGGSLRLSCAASGFTLNSYGISWVRQAPGKGPEWVSGIYSDGRRTFYGDSVKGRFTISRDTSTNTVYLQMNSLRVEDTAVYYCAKGRALGTFDSWGQGTLVTVSS | ND / ND / 5.20 | 2 of 9 (4.85) |
| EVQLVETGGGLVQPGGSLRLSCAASGFTLNSYGISWVRQAPGKGPEWVSVIYSDGRRVCYGDSVKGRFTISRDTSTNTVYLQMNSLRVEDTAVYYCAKGRAMGTFDSWGQGTLVTVSS | ND / 5.16 / 4.02 | 0 of 9 |
| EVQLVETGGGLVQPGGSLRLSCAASGFTLNSWGISWVRQAPGKGPEWVSVIYSDGRRTFYGDSKKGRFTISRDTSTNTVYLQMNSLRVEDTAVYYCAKGRAANTFDSWGQGTLVTVSS | ND / ND / ND | 3 of 9 (4.49) |
| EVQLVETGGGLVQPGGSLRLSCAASGFTSNSYGISWVRQAPGKGPEWVSVAYSDGRRTFYGDIVKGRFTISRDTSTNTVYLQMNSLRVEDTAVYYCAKGRAAGTFDSWGQGTLVTVSS | ND / ND / ND | 1 of 9 (3.36) |
| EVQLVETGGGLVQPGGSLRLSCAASGFTLNSYGCSWVRQAPGKGPEWVSVIYGDIRRTFYGDSVKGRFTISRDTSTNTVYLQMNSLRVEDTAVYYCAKGRAAGTFDSWGQGTLVTVSS | ND / ND / ND | 1 of 9 (4.44) |
| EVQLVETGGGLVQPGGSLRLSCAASGFTLNSYGISWVRQAPGKGPEWVSVEYSDGRRTFYGDSVKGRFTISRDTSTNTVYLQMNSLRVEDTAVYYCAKGRAAGTGDSWGQGTLVTVSS | 5.59 / 2.36 / 4.01 | 2 of 9 (4.23) |
| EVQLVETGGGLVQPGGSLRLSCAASGFTLNSYEISWVRQAPGKGPEWVSVIYSHGRRTFYGDNVKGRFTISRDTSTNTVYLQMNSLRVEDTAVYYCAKGRAAGTFDSWGQGTLVTVSS | ND / ND / ND | 0 of 9 |
| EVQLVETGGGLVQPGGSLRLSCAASGFTLNSYGISWVRQAPGKGPEWVSVIYFDGRRTFEGDSVKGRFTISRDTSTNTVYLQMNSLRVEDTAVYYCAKGRRAGTFDSWGQGTLVTVSS | ND / ND / ND | 0 of 9 |
| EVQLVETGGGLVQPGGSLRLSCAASGYTLNSYGDSWVRQAPGKGPEWVSVIYSDGRRTFYGNSVKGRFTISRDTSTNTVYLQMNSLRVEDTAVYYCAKGRAAGTFDSWGQGTLVTVSS | ND / 3.36 / ND | 2 of 9 (3.58) |
| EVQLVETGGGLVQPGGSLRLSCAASGCTLNRYGISWVRQAPGKGPEWVSVIYSDGRRTFYGDSVKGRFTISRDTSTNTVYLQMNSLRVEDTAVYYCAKGRAAKTFDSWGQGTLVTVSS | 5.05 / 4.18 / ND | 6 of 9 (4.99) |
| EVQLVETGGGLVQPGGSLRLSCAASGFTLNSYGISWVRQAPGKGPEWVSYIFSDGRRTLYGDSVKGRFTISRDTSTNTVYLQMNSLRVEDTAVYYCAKGRAAGTFDSWGQGTLVTVSS | ND / ND / ND | 0 of 9 |
| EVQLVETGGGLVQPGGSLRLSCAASGFTLQSYRILWVRQAPGKGPEWVSVIYSDGRRTFYGDSVKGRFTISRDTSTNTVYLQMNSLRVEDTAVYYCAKGRAAGTFDSWGQGTLVTVSS | ND / ND / ND | 1 of 9 (0.54) |
| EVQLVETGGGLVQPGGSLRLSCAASGFTLASYGISWVRQAPGKGPEWVSVIYSDGRRTFDGDSVKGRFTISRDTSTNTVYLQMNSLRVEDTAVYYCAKGRAAGTFDSWGQGTLVTVSS | ND / 3.97 / 4.70 | 6 of 9 (4.44) |
| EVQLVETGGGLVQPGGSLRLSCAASGFTLNSYGASWVRQAPGKGPEWVSQIYSDGRRTFYGDSVKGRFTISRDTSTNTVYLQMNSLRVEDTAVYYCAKLRAAGTFDSWGQGTLVTVSS | ND / ND / ND | 0 of 9 |
| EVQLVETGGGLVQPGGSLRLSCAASGFTLNSYGISWVRQAPGKGPEWVSVIYSDGRRTFYGDAVKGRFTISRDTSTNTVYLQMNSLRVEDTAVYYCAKGRRAGTFDSWGQGTLVTVSS | 2.51 / 2.51 / 2.37 | 2 of 9 (3.85) |
| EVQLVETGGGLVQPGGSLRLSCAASGFTLNMYGRSWVRQAPGKGPEWVSVIYSDGRRTFYYDSVKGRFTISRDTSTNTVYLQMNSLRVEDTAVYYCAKGRAAGTFDSWGQGTLVTVSS | ND / ND / ND | 0 of 9 |
| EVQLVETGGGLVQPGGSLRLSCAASGFTLNSYGISWVRQAPGKGPEWVSVIYSDGRRTFYGDSVKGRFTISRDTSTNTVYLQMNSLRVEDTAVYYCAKRRAICTFDSWGQGTLVTVSS | 0.31 / 0.52 / 0.55 | 0 of 9 |
| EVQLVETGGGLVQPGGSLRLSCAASGFTLNSYGIYWVRQAPGKGPEWVSVIYSDGRRTFYGDSVKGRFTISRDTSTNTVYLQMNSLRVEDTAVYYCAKGSAAGNFDSWGQGTLVTVSS | ND / 3.62 / ND | 3 of 9 (4.20) |
| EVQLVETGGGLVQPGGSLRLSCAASGFTLNSQGISWVRQAPGKGPEWVSVIYSDGRRTEYGDSVKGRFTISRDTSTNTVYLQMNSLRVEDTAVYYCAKGRAAGHFDSWGQGTLVTVSS | ND / 2.90 / ND | 0 of 9 |
| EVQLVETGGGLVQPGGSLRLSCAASGFTLNSYGISWVRQAPGKGPEWVSVIYSDGRHTFPGDSVHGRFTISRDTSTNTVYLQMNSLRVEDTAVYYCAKGRAAGTFDSWGQGTLVTVSS | ND / ND / ND | 1 of 9 (3.39) |
| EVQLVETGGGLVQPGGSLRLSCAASGFTLNSYGISWVRQAPGKGPEWVSVHYSDGRRTFYGDSVKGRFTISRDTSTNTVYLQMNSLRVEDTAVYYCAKGRAAGNMDSWGQGTLVTVSS | 4.43 / ND / ND | 1 of 9 (3.53) |

The first 2 variants above that were never detected:

| VH | log10 Kd, replicates | control signals |
|---|---|---|
| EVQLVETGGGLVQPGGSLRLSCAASGFTLLSYGISWVRQAPGKGPEWVSVIDSDGRKTFYGDSVKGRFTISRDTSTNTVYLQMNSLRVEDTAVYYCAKGRAAGTFDSWGQGTLVTVSS | ND / ND / ND | 0 of 9 |
| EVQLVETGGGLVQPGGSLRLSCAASGFTLNSYGISWVRQAPGKGPEWVSVIYSDGRRTFYPDSVKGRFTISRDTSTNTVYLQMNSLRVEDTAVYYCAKGGAAGQFDSWGQGTLVTVSS | ND / ND / ND | 0 of 9 |

Parent in this assay: reference entry 0.65, copy in this library 4.11 (one replicate of three).